Patent publication US20220411487A1

Experiments:
[1] = target: full length human TMPRSS6 with a C-terminal triple myc tag on HEK293.hHJV cells (HEK293.hHJV/3xMyc.hTMPRSS6) (human) (UniProt Q8IU80); test: cell-based or functional assay
[2] = target: full-length mouse TMPRSS6 with a C-terminal triple myc tag on HEK293.hHJV cells (HEK293.hHJV/3xMyc.mTMPRSS6) (mouse) (UniProt Q9DBI0); test: cell-based or functional assay

Geometric Mean Fluorescence Intensity of cell surface hHJV [1]: 42300
Inhibition (%) of soluble hHJV release (ELISA) [1]: > 99%
Median Fluorescence Intensity of cell surface hHJV [1]: 58100
Geometric Mean Fluorescence Intensity of cell surface hHJV [2]: 26700
Inhibition (%) of soluble hHJV release (ELISA) [2]: > 99%
Median Fluorescence Intensity of cell surface hHJV [2]: 38100
Substance: Aprotinin (from UniProt P00974 36-93)
